Assay results taken from PMC9716449 (International Journal of Tryptophan Research : IJTR, 2022).

The chains behind the UniProt entries cited, without tags or fusion partners. Where a name states a change or a piece, a line headed by the entry shows the natural chain unless it says otherwise.
UniProt P48775: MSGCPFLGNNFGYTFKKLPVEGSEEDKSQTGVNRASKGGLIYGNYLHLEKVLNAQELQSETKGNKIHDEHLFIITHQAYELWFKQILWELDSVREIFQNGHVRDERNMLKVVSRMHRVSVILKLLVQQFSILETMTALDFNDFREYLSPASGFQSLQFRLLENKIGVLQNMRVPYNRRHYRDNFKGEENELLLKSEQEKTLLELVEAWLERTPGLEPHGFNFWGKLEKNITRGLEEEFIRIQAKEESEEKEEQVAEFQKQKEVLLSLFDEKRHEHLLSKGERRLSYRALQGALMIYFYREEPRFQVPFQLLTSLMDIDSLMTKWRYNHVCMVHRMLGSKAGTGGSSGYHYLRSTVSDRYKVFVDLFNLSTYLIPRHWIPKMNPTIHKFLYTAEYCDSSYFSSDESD

Target: rhTDO (Homo sapiens, UniProt P48775)
Assay: Enzyme assay
Assay type: biochemical
Conditions: read-out: IC50 value on rhTDO; cell-free; 2 mM L-Trp

IC50: 880 nM
Structure (SMILES): Fc1ccc2c(/C=C/c3cccnc3)c[nH]c2c1 [680C91]
